The entries are a selection whose mix differs from that of the whole data set. Calls of active or inactive are those of the source.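 How the source made its calls: active means single-dose screening hits from any of four coupled enzyme assays that gave an IC50 when retested across doses; inconclusive means no clear call, values can overlap the other calls; inactive means the rest.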
Test: NADH-endpoint coupling enzyme inhibition profiling – biochemical, MLSMR library, artefact control, profiling panel (AID 774)
Details: coupled PK/LDH NADH assays, four targets

| Structure (SMILES) | IC50 |
| --- | --- |
| O=P(Nc1nccs1)(c1ccccc1)c1nc2ccccc2s1 (stereo unspecified) | active: 42.6 µM |
